These results are taken from patent US8765727B2, “Macrocyclic compounds and their use as kinase inhibitors” (Incyte Corporation, priority 2009, dated 2014).

The chains behind the UniProt entries cited, without tags or fusion partners. Residues count along the entry.
UniProt P52333, 781-1124: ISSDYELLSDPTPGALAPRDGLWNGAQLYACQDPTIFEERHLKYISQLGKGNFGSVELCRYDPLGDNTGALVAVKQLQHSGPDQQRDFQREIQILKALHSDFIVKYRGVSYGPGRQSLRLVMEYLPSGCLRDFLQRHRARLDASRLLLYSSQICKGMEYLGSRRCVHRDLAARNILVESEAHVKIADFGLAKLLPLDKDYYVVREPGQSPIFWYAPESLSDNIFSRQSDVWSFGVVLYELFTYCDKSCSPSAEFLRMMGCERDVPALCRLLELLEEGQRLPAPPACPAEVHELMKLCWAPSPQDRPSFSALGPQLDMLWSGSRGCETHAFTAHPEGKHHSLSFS

The target of assay [1] is human JAK3 (a.a. 781-1124) catalytic domain (Homo sapiens (Human), UniProt P52333). The assay can be described thus: In vitro JAK kinase assay (HTRF), JAK3. It is filed as biochemical. The settings on record: 3 μM ATP, 500 nM peptide, room temperature 1 hr. As for the experimental part: (§1) One or more compounds herein were tested for inhibitory activity of JAK targets according to the following in vitro assay described in Park et al., Analytical Biochemistry 1999, 269, 94-104. The catalytic domains of human JAK1 (a.a. 837-1142), JAK2 (a.a. 828-1132) and JAK3 (a.a. 781-1124) with an N-terminal His tag were expressed using baculovirus in insect cells and purified. The catalytic activity of JAK1, JAK2 or JAK3 was assayed by measuring the phosphorylation of a biotinylated peptide. The phosphorylated peptide was detected by homogenous time resolved fluorescence (HTRF). […] The ATP concentration in the reactions was 90 μM for JAK1, 30 μM for JAK2 and 3 μM for JAK3. Reactions were carried out at room temperature for 1 hr and then stopped with 20 μL 45 mM EDTA, 300 nM SA-APC, 6 nM Eu-Py20 in assay buffer (Perkin Elmer, Boston, Mass.). Binding to the Europium labeled antibody took place for 40 minutes and HTRF signal was measured on a Fusion plate reader (Perkin Elmer, Boston, Mass.).
In general terms: Time-resolved FRET reads energy transfer from a long-lived donor to a nearby acceptor.

Assay [2] has as its target human JAK1 (a.a. 837-1142) catalytic domain (Homo sapiens, UniProt P23458). Description: In vitro JAK kinase assay (HTRF), JAK1. The conditions noted are these: 90 μM ATP, 500 nM peptide, room temperature 1 hr. It is filed as biochemical. How it is done:
as §1

Turning to `Clc1cnc2nc1NCc1cc(Br)cc(c1)OCCCc1cccc(c1)N2` [Example 16, 12-Bromo-6-chloro-15-oxa-2,4,8,25-tetraazatetracyclo[17.3.1.1(3,7).1(10,14)]pentacosa-1(23),3(25),4,6,10(24),11,13,19,21-nonaene], the IC50 in assay [1] and in assay [2] was 15 nM in each case.

For orientation: IC50 means the concentration that gives 50% inhibition. Read a high IC50 as weaker potency in that assay.
